Measured values from patent US5173297A, “Bacteriocin from Lactococcus lactis subspecies lactis” (Quest International Flavors & Food Ingredients Company …, priority 1991, dated 1992).

Assays:
[1] = tested on: Trypsin; experiment: Effect of treatment with trypsin on antibacterial activity; format: physicochemical; details: for Titer after trypsin treatment: 20 hour at 40° C., 3200-6400 AU/ml bacteriocin
Description: (§1) Trypsin and chymotrypsin susceptibility of crude and purified bacteriocin was explored. Enzymes were obtained from Sigma (St. Louis, Mo.) and were stored lyophilized at -20° C. until use. Enzymatic reactions were done in a 0.1M ammonium bicarbonate buffer, pH 7.8, containing 0.1 mM calcium chloride (Deutcher, M. P., Meth. Enzymol. 182:611-612 (1990)). Susceptibility was defined as inability of the bacteriocin to inhibit the growth of a lawn of indicator bacteria when applied to the surface of an agar plate containing the bacteria at a rate of 16 units activity in a volume of 5 μl.
(§2) Titer <200 is deemed sensitive to protease action; titer >200 is resistant.
Trypsin digestion was done by 20 hour incubation at 40° C. with 3200-6400 AU/ml bacteriocin concentration.

[2] = target: T1, Chymotrypsin (Bos taurus, UniProt P00766); experiment: Effect of treatment with alpha-chymotrypsin on antibacterial activity; format: physicochemical; details: for Titer after chymotrypsin treatment: 2 hour at 40° C., 3200-6400 AU/ml bacteriocin
T1 construct: purchased Sigma (St. Louis, Mo.)
Description: as §1, §2
Chymotrypsin digestion was done by 2 hour incubation at 40° C. with 3200-6400 AU/ml bacteriocin concentration.

Substance: nisin [Nisin Pure]
- sensitive (S) / resistant (R) to protease action ([1]; Trypsin 1 ng/ml): R (titer >200 is resistant)
- Titer after trypsin treatment ([1]; Trypsin 1 ng/ml): > 200
- sensitive (S) / resistant (R) to protease action ([1]; Trypsin 10 ng/ml): S (Titer <200 is deemed sensitive to protease action)
- Titer after trypsin treatment ([1]; Trypsin 10 ng/ml): < 200
- Titer after trypsin treatment ([1]; Trypsin 100 ng/ml): < 200
- Titer after trypsin treatment ([1]; Trypsin 1 μg/ml): < 200
- Titer after trypsin treatment ([1]; Trypsin 10 μg/ml): < 200
- Titer after trypsin treatment ([1]; Trypsin 100 μg/ml): < 200
- sensitive (S) / resistant (R) to protease action ([1]; Trypsin 1 mg/ml): S (Titer <200 is deemed sensitive to protease action)
- Titer after trypsin treatment ([1]; Trypsin 1 mg/ml): < 200
- sensitive (S) / resistant (R) to protease action ([2]; Chymotrypsin 1 μg/ml): R (titer >200 is resistant)
- Titer after chymotrypsin treatment ([2]; Chymotrypsin 1 μg/ml): > 200
- Titer after chymotrypsin treatment ([2]; Chymotrypsin 10 μg/ml): > 200
- Titer after chymotrypsin treatment ([2]; Chymotrypsin 100 μg/ml): > 200
- sensitive (S) / resistant (R) to protease action ([2]; Chymotrypsin 1 mg/ml): R (titer >200 is resistant)
- Titer after chymotrypsin treatment ([2]; Chymotrypsin 1 mg/ml): > 200
